{
  "source": "paper PMC8519570",
  "data": [
    {"target": "DENV2 sE WT (soluble envelope protein E of dengue virus 2, wild type) (dengue virus 2 (strain 16681))", "assay": "BLI", "units": {"Kd": "nM"}, "values": [
      {"substance": "2D22", "Kd": 480},
      {"substance": "3H5", "Kd": 8.6},
      {"substance": "4G2", "Kd": 11}
    ]}
  ]
}
